For data set [1], the target named is human FcRn (Homo sapiens, UniProt P55899). The experiment in a line: BIAcore steady-state binding to human FcRn. The conditions noted are these: steady-state affinity, pH 6.0; read-out: KD [nM] Experiment 2. (In general: Surface plasmon resonance follows binding to a sensor surface in real time, without labels.)
The subject of data set [2] is MDA-MB-175-VII cells. The experiment in a line: In vitro cytotoxicity assay (MTS, 4 days). In kind it is cell-based. To be noted: MDA-MB-175-VII cells (1+ Her2 expression); antibody concentration.
Data set [3] concerns MDA-MB-361-DYT2 and MDA-MB-453 cells. In words: In vitro cytotoxicity assay (MTS, 4 days). The format is cell-based. To be noted: cells with 2++ level Her2 expression: MDA-MB-361-DYT2 and MDA-MB-453.
The subject of data set [4] is N87 cells. To be noted: parental N87 cells.
In data set [5] the test system is N87 cell line xenograft tumors. In words: Bystander effect, immunohistocytochemistry (pHH3, human IgG) of N87 xenograft tumors. The format is in vivo, mouse. To be noted: single dose T-DM1 6 mg/kg or T-vc0101 3 mg/kg, tumors harvested 96 hours later. The source says:
The ability of a released ADC payload to kill neighboring cells is known as the bystander effect. […] Tumor sections were stained for human IgG to detect ADC bound to tumor cells and phosphhistone H3 (pHH3) to detect mitotic cells as readout of the proposed mechanism of action for the payloads of both ADCs.
ADC is detected in the periphery of the tumors in both cases.
In general terms: A xenograft is tissue or cells of one species grown in another, often human tumour cells in immunodeficient mice.

The chains behind the UniProt entries cited, without tags or fusion partners. Residues count along the entry.
UniProt P55899, 24-297 limits assumed: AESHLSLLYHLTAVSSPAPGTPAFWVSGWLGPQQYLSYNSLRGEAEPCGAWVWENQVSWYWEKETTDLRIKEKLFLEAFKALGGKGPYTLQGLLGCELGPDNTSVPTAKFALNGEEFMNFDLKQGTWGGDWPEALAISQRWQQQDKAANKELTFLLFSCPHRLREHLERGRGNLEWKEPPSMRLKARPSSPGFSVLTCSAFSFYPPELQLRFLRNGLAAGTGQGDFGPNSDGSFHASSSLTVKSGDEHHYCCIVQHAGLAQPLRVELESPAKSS

The test system of data set [6] is N87-T-DM1 cells (Mouse #7, #17, #2). In words: Cytotoxicity studies (CellTiter Glo, 96 h) on cells relapsed from T-DM1 treatment in vivo. The format is cell-based. The conditions noted are these: N87-T-DM1 cells compared to parental. The protocol:
Cells were incubated for 96 hours in a humidified 37° C./5% CO2 incubator.
A general note: Cellular ATP, detected with luciferase, serves as a proxy for viable cell number.

Where two headings read alike, the source gives them in different places.

With T-DM1, in data set [1], the Kd turned out to be 501 nM. In addition, the “in vitro cytotoxicity IC50” value was 3.626 µg/mL in data set [2] and 0.038 to 0.04 µg/mL in data set [3]. Also, the values for the IC50 in data set [4] (antibody concentration) and in data set [4] (payload concentration) were 0.062 µg/mL and 1.7 nM, respectively.
In the case of “T-vc0101: trastuzumab conventionally conjugated, vc linker, payload 0101”, the bystander effect entry in data set [5] is recorded as “able to elicit a strong bystander effect”. Besides, in data set [6], the “sensitivity of T-DM1 resistant cells generated in vivo” value is recorded as “sensitive”.

As a reminder, the Kd is the free concentration of one partner at which half of the binding sites on the other are occupied at equilibrium, for simple one-to-one binding. A word on the IC50: it is the concentration that gives 50% inhibition.

(Values after patent US20170216452A1, “ANTIBODIES AND ANTIBODY FRAGMENTS FOR SITE-SPECIFIC CONJUGATION” (Pfizer Inc., priority 2015, published 2017).)
